Test results reported in PMC3479967, “Drug-Drug Interactions Potential of Icariin and Its Intestinal Metabolites via Inhibition of Intestinal UDP-Glucuronosyltransferases” (Evidence-based Complementary and Alternative Medicine : eCAM, 2012).

Target: T1, UGT1A3 (Homo sapiens, UniProt P35503)
T1 sequence (P35503 29-534): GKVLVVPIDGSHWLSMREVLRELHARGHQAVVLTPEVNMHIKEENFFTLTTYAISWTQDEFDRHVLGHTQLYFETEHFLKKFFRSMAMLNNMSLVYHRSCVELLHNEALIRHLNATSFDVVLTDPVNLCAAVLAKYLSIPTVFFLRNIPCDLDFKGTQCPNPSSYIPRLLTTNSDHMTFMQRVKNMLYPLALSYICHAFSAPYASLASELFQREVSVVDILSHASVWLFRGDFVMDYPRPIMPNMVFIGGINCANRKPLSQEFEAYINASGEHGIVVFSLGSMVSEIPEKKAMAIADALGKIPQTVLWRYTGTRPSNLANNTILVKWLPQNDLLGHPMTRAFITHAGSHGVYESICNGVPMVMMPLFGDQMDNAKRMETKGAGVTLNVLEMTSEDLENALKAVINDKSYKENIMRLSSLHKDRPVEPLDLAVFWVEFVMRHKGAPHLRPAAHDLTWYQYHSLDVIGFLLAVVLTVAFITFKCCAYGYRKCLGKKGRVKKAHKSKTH
Assay: Inhibition of recombinant UGT1A3 activity (4-MU glucuronidation)
Method: A panel of recombinant human UGT supersomes (UGT1A1, UGT1A3, UGT1A4, UGT1A6, UGT1A7, UGT1A8, UGT1A9, UGT1A10, UGT2B4, UGT2B7, UGT2B15, and UGT2B17) expressed in baculovirus-infected insect cells were purchased from BD Gentest Corp. (Woburn, MA, USA).
4-MU, a nonselective substrate of UGTs, was used as probe substrate for all UGTs except UGT1A4. Incubations with each individual enzyme were conducted using conditions previously described. There was a 5 min preincubation step at 37°C before the reaction was started by addition of UDPGA. The incubation mixtures were then centrifuged at 20,500 ×g for 15 min to obtain the supernatant. Aliquots (20 μL) were then analyzed by HPLC. The HPLC system (SHIMADZU, Kyoto, Japan) consisted of an SCL-10A system controller, two LC-10AT pumps, a SIL-10A auto injector, and a SPD-10AVP UV detector. […] The mobile phase consisted of 10 mM KH2PO4, pH 2.7 (A) and acetonitrile (B). […]
Inhibition data from experiments were graphically represented by Dixon plots. K i values were calculated by nonlinear regression using the equations for competitive inhibition (1), noncompetitive inhibition (2), or mixed inhibition (3), [22] […] The type of inhibition was determined from the enzyme inhibition models. […]

With `COc1ccc(-c2oc3c(CC=C(C)C)c(O[C@@H]4O[C@H](CO)[C@@H](O)[C@H](O)[C@H]4O)cc(O)c3c(=O)c2O[C@@H]2O[C@@H](C)[C@H](O)[C@@H](O)[C@H]2O)cc1` [Icariin] as the compound, how does the “Inhibition type against UGT1A3” value read?
Its value is “competitive”.
